ERG-DNA inh = inhibitors of human ERG Ets domain-DNA interaction | P11308 | fluorescence polarization, His-ERG Ets domain / labelled DNA | actives 0.028% (n = 370,000) | Potency, µM (titrated, usually from 76.9 µM), hits mostly inhibitors | AID 624246; active = well fitted inhibition curve with a large enough effect in the polarisation, with a control signal flat; inconclusive = small, poorly fitted or top-dose-only effect, or effect the other way, or a change in a side signal; inactive = no such curve, though single readings can be large or run the other way; the % refers to the polarisation;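 note: polarization taken with two DNA probes labelled with fluorescein and Texas red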
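His-tagged ERG Ets domain (1 uM in the protein solution; 300mM KCl, 50mM Tris-HCl, 1mM EDTA, 1mM DTT, pH 7.5) received compound, then a probe mix of 5 nM fluorescein-DNA and 100nM Texas-615-DNA. Fluorescence polarization was read for both dyes.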
RXFP1 antag = antagonists of human relaxin receptor RXFP1. Q9HBX9. HEK293-RXFP1, relaxin-stimulated cAMP HTRF, 30 min; stronger effect = lower value. activity change, negative = inhibition, % at 57.5 µM. actives 0.59% (n = 350,000);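 active = activity change of -60% or lower, but not beyond a set lower limit; inconclusive = change between -60% and -40%, or beyond the set limit; inactive = change above -40%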
miR-21 reporter = miR-21 reporter, rising signal; HeLa miR-21 FLuc reporter, luciferase, 48 h; Potency, µM (titrated, usually from 38.3 µM); 340,000 tested, under 10 active; AID 2288; active = well fitted rising curve with a large enough effect; inconclusive = small, poorly fitted or top-dose-only effect; inactive = no such curve, though single readings can be large or run the other way;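 also: miR-21 action dims this reporter so a rising signal means less miR-21 action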
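Compounds were titrated across several concentrations (up to approximately 40 uM) and incubated 48 hours with HeLa miR-21-FLuc reporter cells (miR-21 target sequence downstream of FLuc, endogenous miR-21). Readout was firefly luciferase luminescence after lytic detection reagent.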
RXFP1 agonist = activates the human relaxin receptor RXFP1; Potency, µM (top dose mostly 57.5 µM), actives largely listed as activators; HEK293T-RXFP1 cAMP TR-FRET, 30 min; response scale: percent of porcine relaxin response, buffer zero; actives 0.3% (n = 370,000); note: nearly all actives have a fitted effect of over 60% in size
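HEK293 cells stably expressing RXFP1, treated 30 min at 37C with compounds plus PDE4 inhibitor Ro 20174; cAMP measured by HTRF TR-FRET. Normalized to buffer and 29 nM porcine relaxin; EC50 by Hill fit.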
ASM inhibitor = human S-ASM enzyme inhibition; actives 0.006% (n = 340,000); Potency, µM (highest dose often 57.5 µM), usual class: inhibitors; placental ASM, HMU-PC fluorogenic substrate, 60 min; P17405; AID 504937
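Fluorescence read-out (Ex 386 nm, Em 447 nm) after stopping the reaction at pH 10. Enzyme: ASM from human placenta; substrate HMU-PC0, 9 uM final; 60 min, 37 °C. Compound preincubation 10 min, ambient temperature.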
Mito fusion yeast = inhibitors of mitochondrial division or activators of mitochondrial fusion; S. cerevisiae fusion-defective mutant growth rescue, CellTiterGlo 48 h; Potency, µM (titrated, usually from 46.1 µM), usual class: activators; actives 0.23% (n = 320,000); AID 485298; note: nearly all actives have a fitted effect of over 45% in size
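Read-out: ATP-based luminescence (CellTiterGlo, 10 min ambient) reporting growth of fusion-defective ts yeast after 48 hours at 37C on glycerol/ethanol YPEG medium in the presence of compound.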
Numbers stand for hits; n = inactive; u = inconclusive; x = no result given; ! = not active in a repeat. Compounds with a hit are over-represented: about 0.72% of the library has one in this group of screens. Unless noted, calls come from the whole dose curve; as a rule, active = well fitted curve in the direction sought with a large enough effect; inconclusive = small, poorly fitted or top-dose-only effect, or another doubt; inactive = no such curve, though single readings can be large; an effect the other way counts as inactive or inconclusive.

SMILES	ERG-DNA inh	RXFP1 antag	miR-21 reporter	RXFP1 agonist	ASM inhibitor	Mito fusion yeast
Cc1ccc2nc(Cl)c3cc(C(=O)NC4CCC(C)CC4)sc3c2c1 (stereo unspecified)	n	n	n	n	x	x
COc1ccccc1Nc1c2c(nc3ccc(NC(=O)c4ccccc4F)cc13)CCCC2	n	-66	u	n	x	x
C#CC(C)(C)NS(=O)(=O)c1cc(-c2nnc(Nc3ccc(C)cc3)c3ccccc23)ccc1C	n	x	n	n	x	x
O=c1oc2cc(O)ccc2c2ccccc12	n	n	n	14µM	n	n
COc1ccc2c(c1)c(=O)oc1cc(O)ccc12	n	n	n	n	n	n
COC(=O)c1c(NC(=S)Nc2ccc(CC(=O)O)cc2)sc(C)c1C	n	-63	n	n	n	n
c1ccc(CN2CCC3(CCCc4ccccc43)CC2)cc1	n	x	x	n	n	23µM!
c1ccc(CN2CCC3(CC2)Nc2ccccc2CO3)cc1	n	n	n	n	n	n
C=CCn1c(O)c(C2=c3ccccc3=NC2=O)c2ccccc21	n	-95	u	n	n	n
Cc1ccc2c(c1)c(C1=c3ccccc3=NC1=O)c(O)n2C	n	n	n	n	n	n
CNC(=O)c1cc2ncc(C(F)(F)F)cc2s1	n	-82	n	n	n	n
COc1ccc2c(C)cc(=S)[nH]c2c1	n	n	n	20µM	n	n
CCN1/C(=C/C(C)=C/c2sc3ccccc3[n+]2CC)Sc2ccccc21	x	-119	u	n	u	n
COCCNC(=O)c1ccc(-n2c(-c3ccccc3)cc3c2CCC(C)C3)cc1 (stereo unspecified)	n	-71	n	n	x	x
CCCNC(=O)c1ccc(-n2c(-c3ccccc3)cc3c2CCC(C)C3)cc1 (stereo unspecified)	n	n	u	n	x	x
COc1cccc(NC(=O)COC(=O)C2CCCCC2)c1	n	n	x	x	n	x
CCN1C(=O)[C@H]2[C@@H](c3ccc(-c4cccc(Cl)c4)cc3)N[C@@](C)(C(=O)OC)[C@H]2C1=O	n	x	x	n	n	22µM
C=C(CN(C)C)C(=O)c1ccc(C)cc1C	n	-81	x	x	n	x
Oc1ccc(Nc2nc(-c3ccccc3)nc3ccccc23)cc1	n	-77	n	n	n	n
O=C(N/N=C\c1ccncc1)c1ccccc1O	n	n	n	n	n	n
O=C(N/N=C/c1ccc(-c2ccccc2)o1)c1ccccc1O	n	-85	n	n	n	n
CCCCc1ccc(NS(=O)(=O)c2ccc(N3CCCCS3(=O)=O)cc2)cc1	n	n	n	n	x	x
COc1ccc(C2C=C(C34CC5CC(CC(C5)C3)C4)NC(=S)N2)cc1 (stereo unspecified)	n	n	n	n	n	11µM
COc1ccc(C2=CC(c3ccc(OC)c(OC)c3)NC(=S)N2)cc1 (stereo unspecified)	n	n	n	n	n	n
CCC(Oc1ccc(F)cc1)C(=O)Nc1nc2c(s1)CCCC2 (stereo unspecified)	n	-117	n	n	x	x
SMILES	ERG-DNA inh	RXFP1 antag	miR-21 reporter	RXFP1 agonist	ASM inhibitor	Mito fusion yeast
COc1ccc(C(=O)N=C2SC3CS(=O)(=O)CC3N2c2ccc(N(C)C)cc2)cc1OC (stereo unspecified)	n	-76	n	n	n	n
CC(C)(C)c1nc(SCC(=O)N2CCCC2)c2ccccc2n1	n	n	n	n	n	n
CC(C)(C)c1nc(SCC(=O)c2ccccc2)c2ccccc2n1	n	-67	n	n	n	n
CN(C)c1ccc(/C=N/n2c(-c3ccccc3Br)n[nH]c2=S)cc1	n	-94	n	n	n	n
CN(C)c1ccc(/C=N/n2c(-c3cccnc3)n[nH]c2=S)cc1	n	n	n	n	n	n
Cc1ccc(-c2nc3sc(C(N)=O)c(N)c3c3c2CCCC3)cc1	n	x	n	n	n	u
CC(=O)c1sc2nc(-c3ccc(C)cc3)c3c(c2c1N)CCCC3	n	x	n	n	n	16µM
S=c1[nH]c2cc(-c3ccccc3)ccc2o1	n	n	n	n	n	16µM
Cc1ccc(C)c2sc(N3CCN(C(=O)c4ccc([N+](=O)[O-])o4)CC3)nc12	n	n	x	n	n	20µM
O=C(CN1CCN(c2ccc(F)cc2)CC1)Nc1ccc(-n2cnnn2)cc1	x	n	n	n	n	n
CC1(C)NC(=O)N(CC(=O)Nc2ccc(-n3cnnn3)cc2)C1=O	n	-71	x	x	n	x
CC(C)(C)c1ccccc1OCC(=O)Nc1ccccc1C(=O)NCc1cccnc1	n	n	u	n	n	16µM
CC(C)(C)C(=O)Nc1ccccc1C(=O)NCc1cccnc1	n	n	n	n	n	n
Cc1sc2nc(C3CC3)nc(SCC(=O)N3CCc4ccccc4C3)c2c1C	n	n	n	n	n	13µM
CN(C)c1ccc(N=NS(=O)(=O)O)cc1	x	n	x	x	x	x
Cc1cc(C)nc(NS(=O)(=O)c2ccc(NC(=O)COc3ccc(C(C)(C)C)cc3)cc2)n1	n	-86	n	n	x	x
O=C1C=CC2(O[C@H](c3ccccc3)[C@@H](c3ccccc3)O2)[C@H](Sc2ccccc2O)C1	x	-99	x	x	n	x
Clc1ccc(C(Cn2ccnc2)OCc2c(Cl)cccc2Cl)c(Cl)c1 (stereo unspecified)	n	u	x	n	n	6.3µM
CCOC(=O)N1CCN(C(=O)CCS(=O)(=O)c2ccc3c(c2)CC(C)N3C(=O)CC)CC1 (stereo unspecified)	n	-92	n	n	n	n
CCC(=O)N1c2ccc(S(=O)(=O)CCC(=O)N3CCN(c4cc(C)ccc4C)CC3)cc2CC1C (stereo unspecified)	n	x	n	n	x	x
CCOC(=O)C1CCN(C(=O)CCS(=O)(=O)c2ccc3c(c2)CC(C)N3C(=O)CC)CC1 (stereo unspecified)	n	n	n	n	n	n
Cc1ccc(C)c(N2CCN(C(=O)CCS(=O)(=O)c3ccc4c(c3)CCN4C(=O)C3CC3)CC2)c1	n	n	n	n	n	11µM
COc1ccc(N2CCN(C(c3nnnn3CCc3ccccc3)C(C)C)CC2)cc1 (stereo unspecified)	n	n	n	n	n	u
COc1ccc(CCn2nnnc2C2(c3ccc(C)cc3)CC2)cc1	x	x	x	x	x	21µM
CCN(CC)S(=O)(=O)c1cccc(NC(=O)c2cc3ccccc3o2)c1	n	n	n	n	n	n
CCN(CC)S(=O)(=O)c1cccc(N=Nc2c(O)c3ccccc3oc2=O)c1	n	n	n	16µM	n	n
CC(C)C[C@H](NC(=O)[C@H](Cc1ccccc1)NC(=O)c1cnccn1)B(O)O	x	n	x	x	x	x

Bioassay records deposited in PubChem BioAssay by National Center for Advancing Translational Sciences (NCATS).
